The values below come from ChEMBL document CHEMBL4270513, “Replacement of Arg with Nle and modified D-Phe in the core sequence of MSHs, Ac-His-D-Phe-Arg-Trp-NH2, leads to hMC1R selectivity and pigmentation” (Eur J Med Chem, 2018).

Sequences of proteins named here, by UniProt entry; tags and fusion partners are left off.
UniProt P32245, whole entry: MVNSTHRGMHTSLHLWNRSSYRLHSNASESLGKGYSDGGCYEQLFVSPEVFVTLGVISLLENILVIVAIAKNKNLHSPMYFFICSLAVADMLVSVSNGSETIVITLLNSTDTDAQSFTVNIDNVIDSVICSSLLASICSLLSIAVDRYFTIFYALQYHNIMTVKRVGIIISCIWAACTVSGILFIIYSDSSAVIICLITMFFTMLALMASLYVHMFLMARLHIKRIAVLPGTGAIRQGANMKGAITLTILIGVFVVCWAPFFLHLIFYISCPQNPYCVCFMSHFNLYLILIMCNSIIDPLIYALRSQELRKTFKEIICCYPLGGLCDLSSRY

Each structure is given as a SMILES string.

Assay [1] addresses T1, Melanocortin receptor 4 (Homo sapiens, UniProt P32245). Nature of the assay: Displacement of [125I]-[Nle4,d-Phe7]-alpha-MSH from human MC4R expressed in HEK293 cells after 40 mins by gamma counting analysis. In kind it is cell-based.
Assay [2] has as its target T1, Melanocortin receptor 4. In words: Agonist activity at human MC4R expressed in HEK293 cells after 3 mins by cAMP assay. In kind it is functional, cell-based.

Compound `CC(=O)N[C@@H](Cc1cnc[nH]1)C(=O)N[C@H](Cc1ccccc1)C(=O)N[C@@H](CCCN=C(N)N)C(=O)N[C@@H](Cc1c[nH]c2ccccc12)C(N)=O` came in with an IC50 at Melanocortin receptor 4 [1] of 359 nM. At Melanocortin receptor 4 [2], this compound had an EC50 of 548 nM.
